Assay results reported in paper PMC7188517.

Chains of the proteins cited; added tags and fusions are not shown. Residues count along the entry.
UniProt P00738, 162-406: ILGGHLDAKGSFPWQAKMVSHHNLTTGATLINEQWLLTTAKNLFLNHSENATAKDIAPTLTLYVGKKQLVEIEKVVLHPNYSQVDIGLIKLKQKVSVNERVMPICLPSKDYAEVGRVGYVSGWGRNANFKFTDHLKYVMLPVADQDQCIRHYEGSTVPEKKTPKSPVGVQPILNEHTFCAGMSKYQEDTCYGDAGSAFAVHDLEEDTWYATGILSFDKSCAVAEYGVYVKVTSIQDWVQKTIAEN
UniProt P00738, 19-160: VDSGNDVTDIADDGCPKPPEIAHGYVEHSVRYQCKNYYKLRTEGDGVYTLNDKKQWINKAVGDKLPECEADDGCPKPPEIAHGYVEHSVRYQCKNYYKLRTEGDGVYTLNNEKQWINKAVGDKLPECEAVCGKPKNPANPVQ

Key:
[1] = target: haemoglobin in cerebrospinal fluid of subarachnoid haemorrhage patients (human (endogenous in CSF of SAH patients)); test: UPLC with absorbance at 415 nm; CSF incubated with exogenous Hp in excess of Hb-binding stoichiometry, then run on the column in a tris-saline mobile phase; increase of the complexed Hb peak area
[2] = target: haemoglobin in cerebrospinal fluid of subarachnoid haemorrhage patients (human (endogenous in CSF of SAH patients)); test: UPLC with absorbance at 415 nm; CSF alone run on the column in a tris-saline mobile phase; Hb-Hp complexes told from uncomplexed Hb by retention time; peak areas quantified with a Hb standard curve

| percent of uncomplexed Hb that formed a complex with Hp, day 11-13 plateau [1] [%] | percent of uncomplexed Hb that formed a complex with Hp, from the third day onwards [1] [%] | percent of Hb uncomplexed (not bound to Hp) in CSF, from third day onwards [2] [%] | Substance |
| --- | --- | --- | --- |
| 76.4 | 90.6 | – | haptoglobin (Bio Products Laboratory Limited) (from UniProt P00738 19-160; P00738 162-406) (natural protein) |
| – | – | 96.3 | endogenous haptoglobin in cerebrospinal fluid (from UniProt P00738 19-160; P00738 162-406) (natural protein) |
